The structures appear in SMILES notation. Only a part is listed here, and it is no random draw. Calls of active or inactive are those of the source.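 Rule for the calls: active = activation above a cutoff set at the mean of all screened compounds plus 3 SD (cut at about 10% in these data); inactive = the rest.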

The test relates to Nuclear hormone receptor DAF-12 (Heterodera glycines), GAL4 fusion. The test is described as follows: H. glycines DAF-12 receptor agonists, primary screen, cell-based, luminescence, HEK293, GAL4 fusion, UAS-luciferase (AID 687014).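 Note: 0% = DMSO wells and 100% = sodium butyrate wells.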 Conditions: HEK293 GAL4-hgDAF12 UAS-luciferase reporter, agonist luminescence; at 6.8 µM; active compounds read high; normalized to butyrate control.
In the case of `O=C(OC1CN2CCC1CC2)c1ccccc1` (stereo unspecified), the activation was inactive: -4.91%. With `CCC(=O)N1C2C3N(C(=O)CC)C1C1N(C(=O)CC)C(C(N1C(=O)CC)N3C(=O)CC)N2C(=O)CC` the figure was inactive: 0.31%; with `COC(=O)c1cc2c(s1)N=C(c1ccccc1)N(C)P2(=O)N1CCOCC1` (stereo unspecified), inactive: 5.43%; with `CC(=O)NC(SC(=S)N(CC(C)C)CC(C)C)C(Cl)(Cl)Cl` (stereo unspecified), inactive: 0.06%. With `Cc1ccc(OP(=O)(Nc2ccccn2)Oc2ccc(C)cc2)cc1` the figure was inactive: -0.1%; with `Cc1ccccc1OP(=O)(Nc1ccccn1)Oc1ccccc1C`, inactive: -3.21%.

Consider `CC(NC(=O)COC(=O)C(O)(c1ccccc1)c1ccccc1)c1ccccc1` (stereo unspecified), for which the activation was inactive: -0.17%.

`CN(C)C(=O)Oc1noc2ccccc12`: the activation is inactive: -1.39%. The same measure for `O=c1c2cc([N+](=O)[O-])ccc2[nH]c2c([N+](=O)[O-])cc([N+](=O)[O-])cc12`: inactive: -3.56%; for `c1ccc(-c2nn[nH]n2)c(-c2nn[nH]n2)c1`: inactive: 1.02%. The same measure for `Cc1ccc(NP(=O)(Oc2cccc(C)c2)Oc2cccc(C)c2)nc1`: inactive: -0.62%; for `O=C(NC1CCS(=O)(=O)C1)NP(=S)(Oc1ccccc1)Oc1ccccc1` (stereo unspecified): inactive: -0.76%. For the compound `CCNC(=S)/N=C(\N)N[N+](=O)[O-]`, the activation was inactive: -2.97%. Regarding `O=P1(N(CCCl)CCCl)OCCC2CCCCN21` (stereo unspecified), the activation is inactive: 0.87%. Regarding `Cc1ccccc1CN(C)C(=O)COC(=O)C(O)(c1ccccc1)c1ccccc1`, the activation was inactive: -0.55%. With `C[C@@H]1C=CCP(=O)(Oc2ccccc2)O1` (stereo partly specified) the figure was inactive: 2.48%; with `C[C@H]1OP(=O)(Oc2ccccc2)C[C@@H]2O[C@@H]21` (stereo partly specified), inactive: 3.55%; with `N#C/C(=C\c1ccc(N(CCBr)CCBr)cc1)C(N)=O`, inactive: 1.74%. On to `CC(=O)c1ccc(N2CC2c2ccncc2)cc1` (stereo unspecified), for which the activation is inactive: 0.64%.

With `COC(=O)C1(C)COP(=O)(NCc2ccccc2)OC1` (stereo unspecified), the activation is inactive: -3.66%. Consider `CC(=O)Nc1ccc([As](=O)(O)O)c(O)c1`, for which the activation is inactive: -0.27%. The same measure for `CC(=O)Nc1ccc(Oc2c([N+](=O)[O-])cc([N+](=O)[O-])cc2[N+](=O)[O-])cc1`: inactive: -1.21%; for `O=P1(Nc2nc3ccc(Cl)cc3s2)COc2ccccc2O1` (stereo unspecified): inactive: 2.52%; for `CCOc1ccc(C2=NCC(CBr)S2)cc1` (stereo unspecified): inactive: -1.93%. On to `CC(C)(C)C(=O)NC(Sc1ccccc1)C(Cl)(Cl)Cl` (stereo unspecified), for which the activation is inactive: -1.58%. For the compound `CCc1cc(O)c([N+](=O)[O-])c(C)c1[N+](=O)[O-]`, the activation was inactive: -0.65%.

For the compound `O=P(Nc1nccs1)(c1ccccc1)c1ccccc1`, the activation is inactive: -2.69%. As to `CC(C)C(=O)NC(Sc1ccccc1)C(Cl)(Cl)Cl` (stereo unspecified), the activation was inactive: 1.52%. For `c1nnnn1CCn1cnnn1`, the activation was inactive: -1.23%. The same measure for `O=[As](O)(c1ccccc1)c1ccc(O)cc1`: inactive: -0.82%; for `CC(=O)NC(SC(=S)N(C)C)C(Cl)(Cl)Cl` (stereo unspecified): inactive: -3.82%; for `O=[N+]([O-])c1ncn(CCn2cnc([N+](=O)[O-])n2)n1`: inactive: 2.77%. With `O=C(OC1CN2CCC1CC2)c1cccc(Cl)c1` (stereo unspecified), the activation was inactive: 7.44%. For the compound `C/C(N)=N\P(=O)(OCc1ccccc1)OCc1ccccc1`, the activation is inactive: 2.1%. The same measure for `Nc1ccc([As](=O)(O)c2ccc([N+](=O)[O-])cc2)cc1`: inactive: 1.16%; for `C(Cc1nn[nH]n1)Cc1nn[nH]n1`: inactive: -1.98%; for `CN(C)C1(CNC(=O)c2ccc(Cl)c(S(N)(=O)=O)c2)CCCCC1`: inactive: 1.78%. The same measure for `O=P(Nc1ccccn1)(c1ccc(Br)cc1)c1ccc(Br)cc1`: inactive: 0.68%; for `Nc1ccc(CCCCOc2ccccc2)cc1`: inactive: 8.61%; for `COc1ccc(N)c([N+](=O)[O-])c1[N+](=O)[O-]`: inactive: -3.21%.

Regarding `O=P(Nc1nc2ccccc2s1)(c1ccccc1)c1ccccc1`, the activation was inactive: 4.55%. The same measure for `C[C@H]1OP(=O)(Oc2ccccc2)[C@H](O)[C@H](O)[C@H]1N=[N+]=[N-]` (stereo partly specified): inactive: 0.38%. With `O=[N+]([O-])c1ncn(CCn2ncnc2[N+](=O)[O-])n1` the figure was inactive: 0.62%; with `CC(C)(C)C(=O)NC(Sc1ccncn1)C(Cl)(Cl)Cl` (stereo unspecified), inactive: -0.92%; with `O=C(O)CNc1ccc([As](=O)(O)O)cc1`, inactive: 0.38%. The same measure for `O=[N+]([O-])c1cccc(NC2=NCC(CBr)S2)c1` (stereo unspecified): inactive: 0.08%. For the compound `COC(=O)C1(C)COP(=O)(Nc2ccccc2)OC1` (stereo unspecified), the activation was inactive: -0.26%. Regarding `O=P1(N(CCCl)CCCl)OCCCS1` (stereo unspecified), the activation was inactive: -0.25%. The same measure for `O=C(Nc1cc([As](=O)(O)O)ccc1O)c1ccccc1`: inactive: -2.92%; for `CCN(/C(=N/P(=O)(N1CCOCC1)N1CCOCC1)N1CCOCC1)c1ccc(OC)cc1`: inactive: 4.66%. As to `Nc1ccc([As](=O)(O)c2ccc(N)cc2)cc1`, the activation was inactive: -4.05%. Take `C[N+]1=C2C=CC=CC=C2SC12C([N+](=O)[O-])=CC([N+](=O)[O-])=C[C-]2[N+](=O)[O-]` (stereo unspecified): the activation is inactive: -10.8%.

In the case of `c1cc(-c2nn[nH]n2)ccc1-c1nn[nH]n1`, the activation was inactive: -1.72%. In the case of `CC1CCN(C(=O)Oc2c(Cl)cc(Cl)c3cccnc23)CC1`, the activation is inactive: 0.18%. The same measure for `CC(C)=N/N=C(\N)N[N+](=O)[O-]`: inactive: 1.63%; for `CC(C)c1nc(Nc2ccccc2)n(P(=O)(N(C)C)N(C)C)n1`: inactive: -0.29%; for `CN(C)C(=O)OCCc1n(C)cc[n+]1C`: inactive: 2.2%. For the compound `COc1ccc(C2=NCC(CBr)S2)cc1` (stereo unspecified), the activation is inactive: 1.91%.

`Cc1ccc(NP(=O)(Oc2ccccc2)Oc2ccccc2)nc1`: the activation is inactive: 0.77%. The same measure for `O=[N+]([O-])c1cc([N+](=O)[O-])c(CCNc2ccccc2)c([N+](=O)[O-])c1`: inactive: -1.13%; for `CCc1nc2c(n1)c1c(non1O)c1c2no[n+]1[O-]`: inactive: -2.78%; for `CC(=O)N1C2C3N(C(C)=O)C1C1N(C(C)=O)C(C(N1C(C)=O)N3C(C)=O)N2C(C)=O`: inactive: -0.05%. The same measure for `O=[N+]([O-])c1cccc2n[nH]nc12`: inactive: -1.63%; for `Oc1ccccc1CNc1ccccn1`: inactive: -0.34%; for `O=C(NC(Sc1ccncn1)C(Cl)(Cl)Cl)c1ccccc1` (stereo unspecified): inactive: -1.08%. Consider `CC(C)CC(=O)NC(Sc1ccc(Cl)cc1)C(Cl)(Cl)Cl` (stereo unspecified), for which the activation was inactive: 3.65%. With `Nc1cc(N)c2nonc2c1[N+](=O)[O-]` the figure was inactive: -0.86%. With `CN(C(=O)Cc1ccc(Cl)c(Cl)c1)[C@H]1CCCC[C@H]1N1CCCC1` the figure was inactive: 2.37%; with `Cc1ccc(N/C(=N/P(=O)(N2CCOCC2)N2CCOCC2)N2CCOCC2)cc1`, inactive: -1.27%; with `NC(=O)c1cc([N+](=O)[O-])cc([N+](=O)[O-])c1N`, inactive: 3.32%.

Turning to `Clc1ccc(Cl)c(NC2=NCC(CBr)S2)c1` (stereo unspecified), the activation is inactive: 1.81%. The same measure for `CN1CCCC(OC(=O)C(c2ccccc2)c2ccccc2)C1` (stereo unspecified): inactive: 1.46%; for `COc1ccccc1OP(=O)(Nc1ccc(C)cn1)Oc1ccccc1OC`: inactive: -0.27%.

For the compound `Cc1ccc(OP(=O)(Nc2nccs2)Oc2ccc(C)cc2)cc1`, the activation was inactive: -0.83%. With `Nc1cccc2ccc([As](=O)(O)O)cc12` the figure was inactive: -0.11%; with `CN(C(=O)Cc1ccccc1)C1CC[C@@]2(CCCO2)C[C@@H]1N1CCCC1` (stereo partly specified), inactive: -0.66%; with `CCN(N=Nc1nonc1N)c1nonc1N`, inactive: -1.21%. The same measure for `CN(C)P(=O)(N(C)C)n1c(Nc2ccccc2)nnc1-c1ccccc1`: inactive: 5.55%; for `O=P(Nc1nc2ccc(Cl)cc2s1)(c1ccccc1)c1ccccc1`: inactive: -0.56%. Consider `O=C(O)c1ccccc1[As](=O)(O)O`, for which the activation is inactive: -2.63%. With `CC(=O)Nc1ccc([As](=O)(O)O)cc1` the figure was inactive: -0.93%; with `CCCC1OP(N)(=O)OCC1CC` (stereo unspecified), inactive: -0.15%.

In the case of `CCn1c(=O)n(C2CCN(CC3CCCCCCC3)C[C@H]2CO)c2ccccc21` (stereo partly specified), the activation is inactive: -3.57%.

On to `CCOP(=O)(Nc1ccccc1)OCC`, for which the activation was inactive: -1.83%. With `Cc1cc(SC(NC(=O)c2ccc(F)cc2)C(Cl)(Cl)Cl)ncn1` (stereo unspecified) the figure was inactive: 2.39%; with `CN(C(=O)Cc1ccc(Cl)c(Cl)c1)[C@H]1CCCC[C@@H]1N1CCCC1`, inactive: -1.37%; with `Cc1ccc(NP(=O)(Oc2ccccc2F)Oc2ccccc2F)nc1`, inactive: 0.39%. Turning to `ClCCSc1nnc(-c2cccnc2)o1`, the activation is inactive: 2.13%. Regarding `CC(C)c1ccc(OP(=O)(Nc2ccccn2)Oc2ccccc2F)cc1` (stereo unspecified), the activation was inactive: -1.41%. The same measure for `COC(=O)C1(C)COP(=O)(N2CCCCCC2)OC1` (stereo unspecified): inactive: -2.39%. The same measure for `CCN(CC)C(=S)SC(NC=O)C(Cl)(Cl)Cl` (stereo unspecified): inactive: 0%; for `O=C(OC1CN2CCC1CC2)c1cccc2[nH]cnc12` (stereo unspecified): inactive: 3.08%. `CC(C)NC(=O)NP(=O)(Oc1ccccc1)Oc1ccccc1`: the activation is inactive: -3.27%. The same measure for `O=[As](O)(c1ccc(O)cc1)c1ccccc1O`: inactive: -2.36%. With `C[As](=O)(O)c1cccc(C(=O)O)c1`, the activation was inactive: 1.61%. The same measure for `COc1cc(C(=O)NCC2(N3CCOCC3)CCCCC2)ccc1OCC(C)C`: inactive: -0.72%; for `O=[N+]([O-])c1ccc(-c2cc([N+](=O)[O-])c(O)c([N+](=O)[O-])c2)cc1`: inactive: -2.14%; for `Cc1ccc(OP(=O)(Nc2ccc([N+](=O)[O-])cn2)Oc2ccc(C)cc2)cc1`: inactive: -0.6%. As for `[N-]=[N+]=NC1CCCCC1NC(=O)c1cc([N+](=O)[O-])cc([N+](=O)[O-])c1` (stereo unspecified), the activation is inactive: -0.82%. The same measure for `Cc1ccc2nc3c(c(C)c2c1)CC(C(Cl)Cl)S3` (stereo unspecified): inactive: 4.76%; for `O=[N+]([O-])c1cc(Oc2ccc([N+](=O)[O-])cc2C(F)(F)F)cc([N+](=O)[O-])c1`: inactive: 0.71%.
